Results: patent US20100143352A1 (published 2010)

Chains of the proteins cited; added tags and fusions are not shown. Residues count along the entry.
UniProt Q9Y275, 82-285: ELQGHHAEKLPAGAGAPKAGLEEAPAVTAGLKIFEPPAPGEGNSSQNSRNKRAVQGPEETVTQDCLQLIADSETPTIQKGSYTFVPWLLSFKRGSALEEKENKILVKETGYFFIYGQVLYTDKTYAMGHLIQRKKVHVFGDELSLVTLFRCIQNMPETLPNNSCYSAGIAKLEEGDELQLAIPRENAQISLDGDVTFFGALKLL

Target: T1, BLyS82-285 (human BAFF residues 82-285) (human, UniProt Q9Y275 82-285)
T1 construct: Made in E. coli from pET15b with an N-terminal His-tag, which thrombin removed; Coated on ELISA plates and, in the phage IC50 assay, also used in solution; also called TALL-1
Test: competitive displacement ELISA on BLyS-coated plates; competitor biotinylated miniBR3; four-parameter fit

ECFDLLVRHWVPCGLLK [blys0095 (ECFDLLVRHWVPCGLLK)]
IC50: 19 nM
